The record followed here is US20170247459A1, “COMBINATION THERAPY OF ANTIBODIES AGAINST HUMAN CSF-1R AND USES THEREOF” (HOFFMANN-LA ROCHE INC., priority 2012, published 2017).

The chains behind the UniProt entries cited, without tags or fusion partners. A line that says so, or that is headed by a name, gives the form on record, which may keep a tag or linker. Residues count along the entry.
UniProt P07333, 20-512 limits assumed: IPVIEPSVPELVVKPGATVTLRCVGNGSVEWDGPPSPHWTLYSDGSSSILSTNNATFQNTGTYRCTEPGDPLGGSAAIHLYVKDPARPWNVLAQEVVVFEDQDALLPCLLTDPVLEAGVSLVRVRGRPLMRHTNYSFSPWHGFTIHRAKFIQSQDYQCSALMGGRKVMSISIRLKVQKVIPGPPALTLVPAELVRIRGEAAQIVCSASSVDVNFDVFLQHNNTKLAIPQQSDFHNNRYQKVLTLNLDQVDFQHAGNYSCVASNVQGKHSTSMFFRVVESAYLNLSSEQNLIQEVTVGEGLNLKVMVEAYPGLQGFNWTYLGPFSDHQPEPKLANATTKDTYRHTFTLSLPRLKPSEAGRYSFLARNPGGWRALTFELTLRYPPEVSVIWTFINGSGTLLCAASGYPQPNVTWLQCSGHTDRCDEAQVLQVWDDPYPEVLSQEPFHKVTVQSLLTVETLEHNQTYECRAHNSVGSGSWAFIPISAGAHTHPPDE
UniProt P07333, 20-311: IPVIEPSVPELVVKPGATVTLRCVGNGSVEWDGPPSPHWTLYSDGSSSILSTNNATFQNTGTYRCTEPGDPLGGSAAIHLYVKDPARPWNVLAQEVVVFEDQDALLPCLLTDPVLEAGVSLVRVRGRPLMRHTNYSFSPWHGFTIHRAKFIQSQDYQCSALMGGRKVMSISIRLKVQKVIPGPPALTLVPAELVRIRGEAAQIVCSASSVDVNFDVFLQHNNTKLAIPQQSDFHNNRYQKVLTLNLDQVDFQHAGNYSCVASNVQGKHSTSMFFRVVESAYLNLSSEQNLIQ
UniProt P07333, with tags, fused parts or gaps DEL295-399: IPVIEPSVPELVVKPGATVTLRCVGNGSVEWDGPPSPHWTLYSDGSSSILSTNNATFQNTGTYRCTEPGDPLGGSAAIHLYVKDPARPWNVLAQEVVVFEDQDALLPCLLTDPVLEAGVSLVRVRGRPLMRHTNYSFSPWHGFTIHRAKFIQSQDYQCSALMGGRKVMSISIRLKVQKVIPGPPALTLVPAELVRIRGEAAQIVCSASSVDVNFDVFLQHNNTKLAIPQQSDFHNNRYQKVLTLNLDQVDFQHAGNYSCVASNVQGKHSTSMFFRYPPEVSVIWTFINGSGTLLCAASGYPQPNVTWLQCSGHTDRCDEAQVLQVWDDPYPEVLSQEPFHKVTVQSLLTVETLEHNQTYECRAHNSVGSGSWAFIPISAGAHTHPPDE

“Also recorded” adds a separate entry of the source.

Experiment [1] addresses CSF-1R ECD (Homo sapiens, UniProt P07333). The experiment is described as follows: Biacore competition assay using the CSF-1R ECD. The class given is binding. To be noted: data not shown. The source says:
Thus the binding region of Mab 2F11/Mab 2E10 is clearly distinct from the binding region of Ab SC-2-4A5, but probably located in a vicinity area.
On the technique in general: Surface plasmon resonance follows binding to a sensor surface in real time, without labels.

Experiment [2] concerns the target T1, human CSF-1R fragment D1-D3 (Homo sapiens, UniProt P07333).
T1 construct: His-Avitag; made in house
The experiment is described as follows: Binding to human CSF-1R fragment D1-D3 (SPR). To be noted: for binding to human CSF-1R fragment D1-D3 (in words): SPR; for KD: fragment D1-D3, SPR single cycle kinetics, 37° C. On the procedure:
The term “binding to human CSF-1R fragment D1-D3” refers to a binding affinity determination by a Surface Plasmon Resonance assay (Biacore assay). The test antibody is captured to the surface and the human CSF-1R fragment D1-D3 (SEQ ID NO: 66) was added and the respective binding affinities were determined.
Determination of the Binding of Anti-CSF-1R Antibodies to Human CSF-1R Fragment D1-D3
Antibodies against CSF-1R were captured via amine coupled capture molecules.
Using the single cycle kinetics five increasing concentrations of human CSF-1R fragment D1-D3 (SEQ ID NO: 66) were injected. Human CSF-1R fragment D1-D3 was subcloned into pCMV-presS-HisAvitag expression vector.
Anti CSF-1R SC 2-4A5 (Santa Cruz Biotechnology, US; Sherr, C. J. et al., Blood 73 (1989) 1786-1793) which inhibits the ligand-receptor interaction, and Mab 3291 (R&D-Systems) were used as reference controls.
Capture molecules: Anti mouse Fcγ antibodies (from goat, Jackson Immuno Research JIR115-005-071) for antibodies according to the invention and the R&D-Systems control Mab 3291 and Anti rat Fcγ antibodies (from goat, Jackson Immuno Research JIR112-005-071) for the reference control anti CSF-1R SC 2-4A5.
Standard amine coupling according to the manufacturer's instructions: running buffer: HBS-N buffer, activation by mixture of EDC/NHS, aim for ligand density of 2000 RU; the capture-Abs were diluted in coupling buffer NaAc, pH 4.5, c=10 μg/mL; finally remaining activated carboxyl groups were blocked by injection of 1 M Ethanolamin.
Kinetic Characterization of Human CSF-1R Fragments D1-D3 Binding to MAbs <CSF-1R> at 37° C.
Running buffer: PBS (Biacore BR-1006-72) Capturing of Mabs <CSF-1R> on flow cells 2 to 4: Flow 20 μL/min, contact time 90 seconds, c(Abs<CSF-1R>)=50 nM, diluted with running buffer+1 mg/mL BSA; Analyte sample:
Single Cycle Kinetics was measured at a flow rate of 30 μL/min by five consecutive injections of the analyte with concentrations, c=7.8, 31.25, 125 500 and 2000 nM, without regeneration. Each injection was 30 seconds long and followed by a dissociation phase of 120 Seconds for the first four injections, and finally 1200 seconds for the highest concentration (=last injection).
Final regeneration was performed after each cycle using 10 mM Glycin pH 1.5 (Biacore BR-1003-54), contact time 60 seconds, flow rate 30 μL/min
Kinetic parameters were calculated by using the usual double referencing (control reference: binding of analyte to capture molecule; Flow Cell: subdomain CSF-1R concentration “0” as Blank) and calculation with model ‘titration kinetics 1:1 binding with draft’.

Experiment [3] has as its target T2, human CSF-1R fragment delD4 (Homo sapiens, UniProt P07333, DEL295-399).
T2 construct: PreScission site - human IgG1 Fc - 6xHis (PreSc-hFc-His) (C, cleaved yes); made in house; host or cells: Hek293 FreeStyle suspension cells, transient transfection
The experiment is described as follows: Binding to human CSF-1R fragment delD4 (SPR, binding signals as RU). To be noted: Biacore sensogram. As to the method:
(§1) The “binding to human CSF-1R fragment delD4 (SEQ ID NO: 65) and to human CSF-1R Extracellular Domain (SEQ ID NO: 64)” as used herein is measured by a Surface Plasmon Resonance assay (Biacore assay) as described in Example 4. The human CSF-1R fragment delD4 (SEQ ID NO: 65) or human CSF-1R Extracellular Domain (SEQ ID NO: 64), respectively, are captured to the surface (each to a separate surface) and the test antibodies were added (each in a separate measurement) and the respective binding signals (Response Units (RU)) were determined. Reference signals (blank surface) were subtracted. If signals of nonbinding test antibodies were slightly below 0 the values were set as 0. Then the ratio of the respective binding signals (binding signal (RU) to human CSF-1R fragment delD4/binding signal (RU) to human CSF-1R Extracellular Domain (CSF-1R-ECD)) is determined. The antibodies according to the invention have a ratio of the binding signals (RU(delD4)/RU(CSF-1R-ECD) of 1:50 or lower, preferably of 1:100 or lower (the lower included end is 0 (e.g. if the RU is 0, then the ratio is 0:50 or 0:100)).
(§2) Determination of the Binding of Anti-CSF-1R Antibodies to Human CSF-1R Fragment delD4 and to Human CSF-1R Extracellular Domain (CSF-1R-ECD) (Binding Signals as Response Units (RU):
(§3) CSF-1R fragments were immobilized via amine coupling. To compare the binding of different anti-CSF-1R antibodies according to the invention one concentration of the test antibody was injected. Anti CSF-1R Mab3291 (R&D-Systems) and SC 2-4A5 (Santa Cruz Biotechnology, US—see also Sherr, C. J. et al., Blood 73 (1989) 1786-1793), was used as reference control, anti-CCR5 m<CCR5>Pz03.1C5 (deposited as DSM ACC 2683 on 18.08.2004 at DSMZ) as negative control, all under the same conditions as the anti-CSF-1R antibodies according to the invention.
(§4) Standard amine coupling according to the manufacturer's instructions: running buffer: PBS-T (Roche: 11 666 789+0.05% Tween20: 11 332 465), activation by mixture of EDC/NHS, injection of human CSF-1R fragment delD4 (comprising the extracellular subdomains D1-D3 and D5) (SEQ ID NO: 65) and human CSF-1R Extracellular Domain (CSF-1R-ECD) (comprising the extracellular subdomains D1-D5) (SEQ ID NO: 64) for 600 seconds at flow rate 10 μl/min; diluted in coupling buffer NaAc, pH 5.0, c=10 μg/mL; finally remaining activated carboxyl groups were blocked by injection of 1 M Ethanolamin.
(§5) Binding of <CSF-1R> Mab 2F11, Mab 2E10, Mab 3291 and Sc2-4A5 and Other Anti-CSF-1R Antibodies to Human CSF-1R Fragment delD4 and Human CSF-1R Extracellular Domain (CSF-1R-ECD) at 25° C.
(§6) Binding was measured at a flow rate of 30 μL/min by one injection of the analyte with concentration c=10 nM. […] Signals were measured by a report point 10 seconds after end of injection.

In experiment [4] the target is T3, human CSF-1R Extracellular Domain (CSF-1R-ECD) (Homo sapiens, UniProt P07333).
T3 construct: PreScission site - human IgG1 aa100-330 (Fc) - 6xHis (C); made in house; host or cells: Hek293 FreeStyle suspension cells, transient transfection
The experiment is described as follows: Binding to human CSF-1R Extracellular Domain (SPR, binding signals as RU). To be noted: Biacore sensogram. On the procedure: as §1, §2, §3, §4, §5, §6

B1: Mab 2F11: murine monoclonal anti-human CSF-1R antibody, VH SEQ ID NO: 7, VL SEQ ID NO: 8 (antibody, listed as Mus musculus, V domains shown)
VH: QVQLKESGPGLVAPSQSLSITCTVSGFSLTTYDISWIRQSPGKGLEWLGVIWTDGGTNYNSPFMSRLSIRKDNSKSQVFLKMNRLQTDDTAIYYCVRDQRLYFDVWGAGTTVTVSS
VL: NIVMTQSPKSMSMSVGERVTLNCKASEDVNTYVSWYQQQPEQSPKLLIYGASNRYTGVPDRFTGGGSTTDFTLTISSVQAEDLADYFCGQSFSYPTFGTGTKLEIK
For B1, in experiment [1], the “competition with Mab3291 from R&D-Systems” value was “did not compete” and the “competition with the antibody Ab SC-2-4A5” value is on record as “some competition”. In addition, in experiment [2], the “binding to human CSF-1R fragment D1-D3 (in words)” value is on record as “showed no binding” and the KD result is “no binding”. Also, in experiment [3], the “binding to CSF-1R fragment delD4 (in words)” value was “no binding was detected; also recorded: do not bind; also recorded: did not bind”. In experiment [4], the “binding to CSF-1R-ECD (in words)” value is reported as “showed binding”.

B2: Mab 2E10: murine monoclonal anti-human CSF-1R antibody, VH SEQ ID NO: 15, VL SEQ ID NO: 16 (antibody, listed as Mus musculus, V domains shown)
VH: QVQLKESGPGLVAPSKSLSITCTVSGSSLDSFDISWIRQSPGKGLEWLGVIWTGGGTNYNSGFMSRLRITKDNSKSQVLLKMNSLQSDDTAIYYCVRDPRLYFDVWGAGTTVTVSS
VL: NIVMTQSPKSMSMSVGERVTLSCKASEDVVTYVSWYQQKPDQSPKLLIYGASNRYTGVPDRFTGSGSATDFTLTISSVQAEDLADYYCGQTFSYPTFGTGTKLEIK
With B2, in experiment [1], the “competition with Mab3291 from R&D-Systems” value is given as “did not compete” and the “competition with the antibody Ab SC-2-4A5” value is “some competition”. Also, in experiment [2], the “binding to human CSF-1R fragment D1-D3 (in words)” value is recorded as “showed no binding” and the KD result was “no binding”. For the same molecule, the “binding to CSF-1R fragment delD4 (in words)” value in experiment [3] is “no binding was detected; also recorded: do not bind; also recorded: did not bind”. Besides, the “binding to CSF-1R-ECD (in words)” value in experiment [4] is “showed binding”.

B3: Mab 1G10: murine monoclonal anti-human CSF-1R antibody, VH SEQ ID NO: 75, VL SEQ ID NO: 76 (antibody, listed as Mus musculus, V domains shown)
VH: RVQLKESGPGLVAPSQSLSITCTVSGFSLTSYDISWIRQSPGKGLEWLGVIWSGGGTNYNSPFMSRLRISKDDSRSQVFLKVNRLQTDDTAIYYCVRDLRLYFDVWGAGTTVTVSS
VL: KIVMTQSPKSMSVSVGERVSLSCKASEDVGTYVSWYQQKPEQSPKLLIYGSSNRYTGVPDRFTGSGSATDFTLTISSVQAEDLADYSCGQSFTYPTFGTGTKLEIK
On to B3, for which, in experiment [2], the “binding to human CSF-1R fragment D1-D3 (in words)” value was “showed no binding” and the KD result is “no binding”. For the same molecule, in experiment [3], the “binding to CSF-1R fragment delD4 (in words)” value is recorded as “no binding was detected; also recorded: did not bind”. In experiment [4], the “binding to CSF-1R-ECD (in words)” value is reported as “showed binding”.

B4: Mab 2H7: murine monoclonal anti-human CSF-1R antibody, VH SEQ ID NO: 83, VL SEQ ID NO: 84 (antibody, listed as Mus musculus, V domains shown)
VH: QVQLKESGPGLVAPSKSLSITCTVSGSSLDSFDISWIRQPPGKGLEWLGVIWTGGGTNYNSGFMSRLRISKDNSKSQVFLKMSSLQSDDTAIYYCVRDPRLYFDVWGAGTTVTVSS
VL: NIVMTQSPKSMSMSVGERVTLSCKASEDVVTYVSWYQQKPEQSPKLLIYGASNRYTGVPDRFTGSGSATDFTLTISSIQAEDLADYYCGQTFSYPTFGTGTKLEIK
For B4, in experiment [3], the “binding to CSF-1R fragment delD4 (in words)” value is reported as “no binding was detected; also recorded: did not bind”. The “binding to CSF-1R-ECD (in words)” value in experiment [4] is “showed binding”.
